The values below come from PMC8713283 (2021).

Sequences of proteins named here, by UniProt entry; tags and fusion partners are left off. Residues count along the entry.
UniProt P40337, 54-213, chain 1 of 3: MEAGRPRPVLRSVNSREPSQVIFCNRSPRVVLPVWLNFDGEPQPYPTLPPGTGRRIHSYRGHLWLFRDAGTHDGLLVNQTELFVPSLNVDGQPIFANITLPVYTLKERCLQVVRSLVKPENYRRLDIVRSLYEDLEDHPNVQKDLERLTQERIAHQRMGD
VCB (VHL:ElonginC:ElonginB), UniProt Q15370, 1-104, chain 3 of 3: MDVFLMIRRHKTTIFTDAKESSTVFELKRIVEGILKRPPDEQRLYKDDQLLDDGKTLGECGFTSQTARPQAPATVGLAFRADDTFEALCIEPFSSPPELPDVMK

Experiment [1] deals with T1, VCB (VHL:ElonginC:ElonginB) (UniProt P40337 54-213; Q15369 17-112; Q15370 1-104). Briefly: FP; ternary with PROTAC ARV-771 (22).
Experiment [2] deals with T1, VCB (VHL:ElonginC:ElonginB). Briefly: FP; ternary with PROTAC MZ1 (21).
For experiment [3] the target is unchanged. Briefly: FP; ternary with PROTAC AB1 (23).
Experiment [4] has the same target. Briefly: FP; ternary with PROTAC OMZ1 (25).
Experiment [5] shares this target. The experiment can be described thus: FP; ternary with PROTAC AB2 (24).

B1: Brd3-BD2 (306–416) (domain or fragment)
chain: GKLSEHLRYCDSILREMLSKKHAAYAWPFYKPVDAEALELHDYHDIIKHPMDLSTVKRKMDGREYPDAQGFAADVRLMFSNCYKYNPPDHEVVAMARKLQDVFEMRFAKMP
As to B1, the dissociation constant (Kd) in experiment [1] came out at 0.0078 µM; in experiment [2], 0.015 µM; in experiment [3], 0.027 µM; in experiment [4] it was 0.047 µM; in experiment [5], 0.02 µM.
